# Assay results from PubChem BioAssay AID2540 (Sanford-Burnham Center for Chemical Genomics, 2010).
# Chains of the proteins cited; added tags and fusions are not shown. Lines headed by an entry give the natural chain unless they say otherwise; changes in a name come on top.
# UniProt Q96LD8: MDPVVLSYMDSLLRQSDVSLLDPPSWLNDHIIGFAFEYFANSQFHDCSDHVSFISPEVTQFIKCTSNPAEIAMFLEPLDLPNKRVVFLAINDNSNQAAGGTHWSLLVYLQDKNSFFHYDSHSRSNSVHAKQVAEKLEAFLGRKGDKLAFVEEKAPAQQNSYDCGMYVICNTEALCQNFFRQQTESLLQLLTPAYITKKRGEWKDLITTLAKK
# The entries are a selection whose mix differs from that of the whole data set. Calls of active or inactive are those of the source. Cut-off read from the data, not from the text of the source: active = inhibition above about 50%; inactive = the rest.
# Biological target: Sentrin-specific protease 8 (Homo sapiens) (UniProt Q96LD8)
# Test: blockers of human SENP8 peptidase activity – biochemical, luminescence, primary screen (AID 2540)
# Conditions: purified SENP8, Z-RLRGG-aminoluciferin cleavage, at 10 µM, active compounds read high
row,Structure (SMILES),inhibition
1,Cc1ccc(NCCc2c([N+](=O)[O-])cc([N+](=O)[O-])cc2[N+](=O)[O-])cc1,inactive: 6.58%
2,Cc1cccc(OCC(=O)OC2CN3CCC2CC3)c1 (centres undefined),inactive: -4.95%
3,O=[As](O)(c1cccc(O)c1)c1cccc(O)c1,inactive: 3.04%
4,O=[As](O)(O)c1cccnc1,inactive: 3.96%
5,COc1cc(C(=O)NCC2(N3CCOCC3)CCCCC2)cc(Cl)c1OC(C)C,inactive: 4.38%
6,CS(=O)(=O)c1ccc(Cl)c(NC(=O)COC(=O)C(O)(c2ccccc2)c2ccccc2)c1,inactive: -1.44%
7,O=C(OC1CN2CCC1CC2)c1ccc(Cl)cc1 (centres undefined),inactive: -0.278%
8,O=[As](O)(c1ccccc1Br)c1ccccc1Br,inactive: 5.26%
9,CC1(CBr)Cn2c(nc3ccccc3c2=O)S1 (centres undefined),inactive: -5.54%
10,CC(C)/C=N\N=C(\N)N[N+](=O)[O-],inactive: -5.92%
11,CN(C(=O)Cc1ccc(Cl)c(Cl)c1)[C@@H]1CCCC[C@H]1N1CCCC1,inactive: -6.24%
12,COc1ccccc1CNC(=O)COC(=O)C(O)(c1ccccc1)c1ccccc1,inactive: -2.67%
13,Clc1n[nH]nc1-c1nn[nH][15n]1,inactive: -7.56%
14,CC(C)(C)C(=O)NC(Sc1ncccn1)C(Cl)(Cl)Cl (centres undefined),inactive: 2.93%
15,CCOP(=O)(Nc1ccc(C)cn1)OCC,inactive: 0.527%
16,CN(CCCl)Cc1cc(Cl)c(NC2=NCCN2)c(Cl)c1,inactive: 3.61%
17,O=P1(Nc2ccccn2)COc2ccccc2OC1,inactive: -6.87%
18,CCC1=CC2Cc3nc4ccc(Cl)cc4c(N)c3C(C1)C2 (centres undefined),inactive: -0.408%
19,CCOP(=O)(NC(=NC(C)c1ccccc1)NC(C)c1ccccc1)OCC (centres undefined),inactive: 4.55%
20,Cc1ccc(OCC(=O)OC2CN3CCC2CC3)cc1 (centres undefined),inactive: 0.969%

row,Structure (SMILES),inhibition
1,O=[As](O)(c1cccs1)c1cccs1,inactive: -9.16%
2,O=P1(Nc2ccc(Br)cn2)COc2ccccc2OC1,inactive: 9.36%
3,NS(=O)(=O)c1cccc(NC(=O)COC(=O)C(O)(c2ccccc2)c2ccccc2)c1,inactive: -0.473%
4,Nc1cccc([As](=O)(O)c2ccccc2)c1,inactive: -0.81%
5,O=P1(Nc2ncccn2)COc2ccccc2OC1,inactive: -10.5%
6,O=C(/C=C/c1ccccc1)OC1CN2CCC1CC2 (centres undefined),inactive: -5.99%
7,CN(C)C1(CNC(=O)c2ccc(S(C)(=O)=O)cc2)CCCCC1,inactive: -7.67%
8,Cc1nn(-c2ccccc2)c2c1P(=O)(N1CCOCC1)N(C)C(c1ccccc1)=N2 (centres undefined),inactive: -3.32%
9,CC1CCC(C(C)C)C(OP(=O)(Nc2ccccn2)c2ccccc2)C1 (centres undefined),inactive: -0.392%
10,Cc1ccc(C(=O)OC2CN3CCC2CC3)cc1 (centres undefined),inactive: -1.76%
11,O=P(Nc1ccccn1)(c1cccc2ccccc12)c1cccc2ccccc12,inactive: 3.64%
12,Cc1cc(SC(NC=O)C(Cl)(Cl)Cl)ncn1 (centres undefined),inactive: -10.3%
13,CCOC(=O)Nc1cccc([As](=O)(O)O)c1,inactive: -3.96%
14,CCCCOc1ccc(C(=O)NCC2(N3CCCCC3)CCCCC2)cc1OC,inactive: -3.02%
15,Cc1cc(SC(NC(=O)c2ccccc2)C(Cl)(Cl)Cl)nc(C(C)C)n1 (centres undefined),inactive: 4.31%
16,CCOC(=O)Nc1ccc([As](=O)(O)O)c(O)c1,inactive: -0.311%
17,CCC(C)N(CC(C)C)C(=S)SC(NC(C)=O)C(Cl)(Cl)Cl (centres undefined),inactive: 3.43%
18,CCOC(=O)c1ccc(NC(=O)C(C)(CCl)SC)cc1 (centres undefined),inactive: -5.99%
19,O=C(OC1CN2CCC1CC2)c1cccc([N+](=O)[O-])c1 (centres undefined),inactive: 0.19%
20,O=C(COc1ccccc1)OC1CN2CCC1CC2 (centres undefined),inactive: 0.323%

row,Structure (SMILES),inhibition
1,O=C(Nc1ccncc1[N+](=O)[O-])c1ccc([N+](=O)[O-])cc1[N+](=O)[O-],inactive: 2.87%
2,COP1(=S)c2c(C)nn(CCC#N)c2N=C(c2ccc(F)cc2)N1C (centres undefined),inactive: 0.921%
3,COc1ccc(N/C(=N/P(=O)(N2CCOCC2)N2CCOCC2)N2CCOCC2)cc1,inactive: 2.5%
4,COc1ccc2nc(NP(=O)(c3ccccc3)c3ccccc3)sc2c1,inactive: 8.74%
5,COc1cc(I)ccc1[As](=O)(O)O,inactive: 0.792%
6,O=C(OC1CN2CCC1CC2)C12CC3CC(CC(C3)C1)C2 (centres undefined),inactive: -5.74%
7,Cc1cc(=O)[nH]c(N[N+](=O)[O-])n1,inactive: -6.95%
8,Cc1c2c(nc3ccccc13)SC(C(Cl)Cl)C2 (centres undefined),inactive: -15.5%
9,CC(C)NC(=O)NP(=O)(Oc1ccccc1)Oc1ccccc1,inactive: -0.793%
10,CCN(CC)C(=S)SC(NC=O)C(Cl)(Cl)Cl (centres undefined),inactive: -7.82%
11,O=C(OC1CN2CCC1CC2)c1cccc2[nH]cnc12 (centres undefined),inactive: -0.408%
12,O=[N+]([O-])c1cc([N+](=O)[O-])c(-c2ccn[nH]2)s1,inactive: 8.15%
13,CC(C)c1ccc(OP(=O)(Nc2ccccn2)Oc2ccccc2F)cc1 (centres undefined),inactive: 2.6%
14,ClCCSc1nnc(-c2cccnc2)o1,inactive: 6.76%
15,Cc1ccc2nc3c(c(C)c2c1)CC(C(Cl)Cl)S3 (centres undefined),inactive: -13.7%
16,Cc1ccc(OP(=O)(Nc2ccc([N+](=O)[O-])cn2)Oc2ccc(C)cc2)cc1,inactive: 1.88%
17,O=[As](O)(c1ccc(O)cc1)c1ccccc1O,inactive: -3.05%
18,C[As](=O)(O)c1cccc(C(=O)O)c1,inactive: -5.05%
19,COc1cc(C(=O)NCC2(N3CCOCC3)CCCCC2)ccc1OCC(C)C,inactive: -0.205%
